The source of these data is patent US20140171510A1, “HO[…] AND/OR CONJUGATES OF AMPHETAMINE AND OTHER […] PROCESSES FOR MAKING AND USING THE SAME” (priority 2011, published 2014).

The nature of the data set: Intravenous study in rats, plasma d-amphetamine by ELISA (Example 8). As to conditions: […] equivalent.

Consider “l-lysine-d-amphetamine [Lys-Amp, reference compound]”, for which the Tmax amounted to 15 m.
